{"sequences": {"note": "Protein sequences, listed by entry. Tags and fused reporters are not part of them. Lines headed by an entry give the natural chain unless they say otherwise; changes in a name come on top.", "UniProt P47936": "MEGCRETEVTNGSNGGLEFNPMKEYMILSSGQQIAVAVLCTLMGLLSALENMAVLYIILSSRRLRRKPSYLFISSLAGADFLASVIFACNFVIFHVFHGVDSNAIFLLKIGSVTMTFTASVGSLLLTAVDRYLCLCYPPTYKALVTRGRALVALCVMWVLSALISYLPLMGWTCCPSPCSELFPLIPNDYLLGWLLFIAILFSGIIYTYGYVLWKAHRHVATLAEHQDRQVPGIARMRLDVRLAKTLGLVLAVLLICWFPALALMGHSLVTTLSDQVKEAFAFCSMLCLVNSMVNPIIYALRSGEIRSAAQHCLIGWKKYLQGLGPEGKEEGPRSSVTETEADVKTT"}, "source": "patent US8367714B2", "about": "“Cannabinoid receptor targeted agent” (Vanderbilt University, priority 2007, dated 2013)", "target": "T1, mouse CB2 receptors (Mus musculus, UniProt P47936)", "T1 construct": "expressed in transfected cells", "assay": "Displacement of [3H]-SR144528 binding to membrane fractions from DBT cells stably expressing mouse CB2 receptors", "details": "displacement of [3H]-SR144528, membranes of DBT cells expressing mouse CB2", "description": "One NIR dye labeled conjugable SR144528 (NIRmbc94 or SR-NIR) was tested for its ability to displace the binding of [^3H]-SR144528 to membrane fractions from DBT cells stably expressing mouse CB2 receptors."}
{"substance": "SR144528", "values": [{"measurement": "Ki", "result": 700, "unit": "pM"}]}
